Earlier results as cited in US6895396B2, “Neural network methods to predict enzyme inhibitor or receptor ligand potency” (Albert Einstein College of Medicine of Yeshiva University, priority 1998, dated 2005).

The chains behind the UniProt entries cited, without tags or fusion partners. Where a name states a change or a piece, a line headed by the entry shows the natural chain unless it says otherwise.
UniProt P0ABF6: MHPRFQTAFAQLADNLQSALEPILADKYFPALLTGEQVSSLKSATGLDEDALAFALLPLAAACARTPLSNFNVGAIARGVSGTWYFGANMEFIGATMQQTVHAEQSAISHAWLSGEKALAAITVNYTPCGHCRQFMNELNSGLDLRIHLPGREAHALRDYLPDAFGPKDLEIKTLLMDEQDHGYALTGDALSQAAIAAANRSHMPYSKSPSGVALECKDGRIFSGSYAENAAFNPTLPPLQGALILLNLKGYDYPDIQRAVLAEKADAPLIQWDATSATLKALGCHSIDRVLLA

Molecular target: cytidine deaminase (Escherichia coli, UniProt P0ABF6)
Details: binding free energy from the literature; cited from earlier work

| SMILES | ΔG/RT (experimental) |
| --- | --- |
| O=C1CCN([C@@H]2O[C@H](CO)[C@@H](O)[C@H]2O)C(=O)N1 [3,4,5,6-tetrahydrouridine] | −16 |
| O=C1CCN([C@@H]2O[C@H](CO)[C@@H](O)[C@H]2O)C(=O)N1 [5,6-dihydrouridine] | −5.7 |
